Values quoted from earlier work, collected in patent US5298499A, “S-2-(substituted ethylamino)ethyl phosphorothioates” (Research Triangle Institute, priority 1991, dated 1994).
Like-named read-outs stand apart in the source and are kept apart here.

Assays:
mice = settings: 10 GY, taken from T. R. Sweeney
[1] = compared with compound 1 (dose levels)

## NC(=O)CCNCCSP(=O)(O)O
mice; 25 mg/kg
  30-Day Survival: 0%
mice; 50 mg/kg
  30-Day Survival: 0%
[1]
  toxicity: more toxic compound
